Literature values as cited in patent publication US9216962B2 (priority 2011, dated 2015).

Legend:
[1] = test system: breast cancer cells (MDA-MB-231) and fibroblast osteosarcoma cells (U2OS); settings: cited from earlier work
TNF-alpha = settings: in vivo; cited from earlier work

CCCCCCCC(=O)SCC/C=C/[C@@H]1CC(=O)NCc2nc(cs2)C2=N[C@@](C)(CS2)C(=O)N[C@@H](C(C)C)C(=O)O1 [largazole]
effect on normal cells [1]: less effect

phenyl butyric acid
expression of TNF-alpha (TNF-alpha): inhibit expression of TNF-alpha
